{
  "source": "patent EP0567613B1",
  "about": "“COMPOSITIONS FOR THERAPY AND PREVENTION OF CANCER” (The Government of the United States of America, as …, priority 1991, dated 1993)",
  "tested_on": "premalignant 10T1/2 cells",
  "assay": "cells",
  "conditions": "Mus musculus, Adipocyte, 168 h, read-out: concentration at which increased lipid accumulation was evident",
  "experimental": "C. Quantitation of adipocytosis. Lipids stained with Oil-Red O were extracted with butanol, and the optical density at 510 nm determined.\nLower: Quantitation of adipocytosis. Cells were fixed with 37% formaldehyde and stained with Oil-Red O. The stained intracellular lipid was extracted with butanol, and the optical density was determined using a Titertek Multiskan MC, manufactured by Flow Laboratories, at a wavelength 510 nm.",
  "data": [
    {"smiles": "O=C([O-])Cc1ccccc1.[Na+]", "note": "[NaPA, sodium phenylacetate]", "values": [
      {"measurement": "minimal effective concentration", "result": 24, "unit": "µg/mL"}
    ]}
  ]
}
